Measurements taken from patent US20020142945A1, “Immunomodulatory methods using carbohydrate antigens” (President and Fellows of Harvard College, priority 1998, published 2002).

How the values were obtained:
[1] = test system: B220+ cells; assay: B7-1 and B7-2 expression on B220+ splenocytes (immunofluorescent staining, flow cytometry); type: in vivo, mice
Description: In flat-bottom 24-well culture plates (Corning), suspensions of 2.5×10^6 cells per ml were cultured with ConA (2 μg/ml) or without restimulation at 37° C. in supplemented RPMI 1640 medium as described above. 24, 72 and 120 hrs later, the cell cultures were then centrifuged, and the culture supernatants were harvested and kept frozen (−80° C.) until assayed. Pelleted cells were resuspended then stained with mAbs coupled to FITC or PE for immunofluorescent staining. IL-2, IL-4, IL-5, IL-10 and IFN-γ levels in supernatants from ConA-stimulated or unstimulated splenocytes were measured by capture ELISA. In brief, Maxisorp microtitre plates (Nunc Laboratories Ltd., Denmark) were coated with 50 μl of capture Ab at 2.0 μg/ml (rat anti-mouse IL-5, IL-10 and IFN-γ from Pharmingen and rat anti-mouse IL-4 from Endogen, Mass.) in Carbonate-bicarbonate buffer by overnight incubation at 4° C. Wells were then washed with PBS-T four times and blocked by addition of 10% FCS in PBS (2 hours, 37° C.). 50 μl of culture supernatants and appropriate recombinant standards were then added to individual well in duplicate. For standard curves, recombinant IL-5 (0 to 5,000 pg/ml), IL-10 (0 to 25,000 pg/ml), IFN-γ (0 to 20,000 pg/ml) (Pharmingen, Calif.) and IL-4 (0 to 1,500 pg/ml) (Endogen, Mass.) were used in duplicate. Following overnight incubation at 4° C., the wells were washed and appropriate 50 μl/well biotinylated detection Ab at 1 μg/ml (rat anti-mouse IL-5, IL-10 or IFN-γ from Pharmingin and rat anti-mouse IL-4 from Endogen) were added. For the detection of bound biotinylated Ab, 50 μl of streptavidin-alkaline phosphatase conjugate ( 1/2000, Pharmingen) was added to each well for 45 minutes, then washed. Level of cytokine in the wells was visualized by addition of p-nitrophenyl phosphate (Sigma) in glycine buffer. Absorbance was measured at 405 nm using a UVMax automatic microplate reader.
Following in vitro culture without restimulation, splenocytes were resuspended and incubated on ice for 15 min with mAbs as follows: anti-CD45R/B220 (RA3-6B2), anti-B7-1 (16-10A 1), and anti-B7-2 (GL-1) or isotype-matched controls. All mAbs were either FITC- or PE-conjugated (Pharmingen). After washing with Hanks' balanced salt solution (Gibco) containing 0.05% sodium azide, flow cytometry analysis was performed by using a FACSCalibur flow cytometer and Cell Quest software (Becton Dickinson, CA). Dead cells were excluded from analysis on the basis of propidium iodide (Molecular Probes, OR) staining. Lymphocytes were gated according to the physical characteristics of forward and side scatter and at least 10,000 events were acquired.

[2] = test system: serum total IgE; details: intranasal sensitization; cited from earlier work
[3] = test system: serum IgG isotypes; assay: Serum total IgG isotypes by ELISA following IP immunization; type: in vivo, mice
Description: Multivalent LNnT or Lewis^γ were conjugated with HSA (LNnT-HSA and Le^y-HSA) by Accurate Chemical and Scientific Corporation (NY). In both neoglycoproteins, 13 molecules of sugar conjugated to 1 HSA molecule. As controls, HSA (Sigma Chemical Co., Mo.), HSA adsorbed to alum (Intergen Company, NY; HSA-alum), or Dulbecco's PBS (Gibco BRL, NY) were prepared for immunization. Groups of four to six mice were immunized intraperitoneally or subcutaneously with Ags (10 μg of HSA) or saline. First and second boosting immunization were performed in the same fashion 2 and 3 weeks later, respectively. Protein concentration was determined by bicinchoninic acid (BCA) assay (Pierce, Ill.).
Serum total IgG isotypes were also determined by ELISA. Plates were coated with 100 μl of 2 μg/ml rat anti-mouse IgG1, IgG2a, IgG2b, and IgG3 mAb (Pharmingen) overnight at 4° C. After washing and blocking described as above, 100 μl samples of serially-diluted serum or standard mouse IgG isotypes (Pharmigen) were added in duplicate wells and incubated for 2 hrs at 37° C. Thereafter, 100 μl peroxidase-conjugated polyclonal goat anti-mouse Ig (Pharmingen) diluted in 1/1000 were added and incubated for 1 hr at 37° C. After the washing, the reactions were developed and stopped as described above, and the absorbance was measured at 450 nm.

[4] = test system: splenocytes; assay: Proliferative responses of splenocytes (3H thymidine); type: cell-based, mice
Description: Groups of mice were killed by carbon dioxide 5 days following second boosting immunization. Spleens were removed aseptically and proliferation assays were performed as described previously (Velupillai, P. et al. (1997) J. Immunol. vol. 158 pp. 338-344). In brief, cell suspensions were prepared in RPMI 1640 supplemented with 10% FCS (Gibco), 2 mM L-glutamine, 5×10^−5 M 2-mercaptoethanol, 100 Unit/ml penicillin, and 100 μg/ml streptomycin (Sigma). Red blood cells were removed by incubation in Boyle's solution, and 2.5×10^6 cells per ml were added to 96-well flat-bottom tissue culture plates (Corning) in triplicate for 72 hrs at 37° C., 5% C02 in air, with 2 μg/ml ConA (Vector), 10 μg/ml HSA or LNnT-HSA. For the final 8 hrs, cells were incubated with 1 μCi ^3H thymidine (Amersham Life Science Inc., IL) and then harvested onto filter paper for scintillation counting.

[5] = BALB/C mice IP immunized, vs saline or HSA alone

In the case of “LNnT-HSA: Multivalent lacto-N-neotetraose conjugated with human serum albumin; 13 molecules of sugar per HSA molecule”, the “B220 positive cells expressing B7-2 molecule” value ([1]; 24 hrs culture incubation without restimulation, vs saline or HSA) is reported as “increased”, the “B7-2 expression on B220+ cells” value ([1]; IL-4 deficient mice) is reported as “did not induce B7-2 expression” and the “duration of increase of B7-2 expressing B220 positive cells” value ([1]; culture without restimulation) is reported as “at least 120 hrs”. The “incubation after which increase of B7-2 expressing B220 positive cells was found” value ([1]; culture without restimulation) was 6 h, the “B7-1 expression on B220 positive cells” value ([1]; cultured splenocytes without restimulation, throughout the period observed) was “not altered” and the “percentage of the cells positive for both B7-2 and B220 molecules” value ([1]; freshly isolated splenocytes, IP immunized mice) was 0.56±0.04 percentage. For the same substance, the “percentage of the cells positive for both B7-1 and B220 molecules” value ([1]; freshly isolated splenocytes, IP immunized mice, n=6) was 0.88±0.06 percentage, the “elevation of serum IgE” value [2] was “does not induce” and the “serum IgG1” value [3, 5] was “significantly increased”. The “serum amount of other IgG isotypes” value [3, 5] was “not significantly different”, the “serum IgG3” value ([3]; mice IP immunized, compared with controls) was “same amount” and the “proliferative response of splenocytes with restimulation of LNnT-HSA” value ([4]; BALB/C mice immunized IP) was “significantly enhanced”. For the same substance, the “proliferative response of splenocytes without restimulation” value ([4]; BALB/C mice immunized IP, compared to control mice) was “significant responses”, the “proliferative response of splenocytes in ConA stimulation” value ([4]; BALB/C mice immunized IP, vs controls) was “significantly more” and the “in vitro proliferative responses to LNnT-HSA” value ([4]; splenocytes of mice IP immunized with HSA or saline, 10 μg/ml, compared to HSA or unrestimulation) was “moderate but significant”.
